Experimental data as given in article PMC8645912 (ESMO Open, 2021).
Like-named read-outs stand apart in the source and are kept apart here.

Columns and labels:
[1] = cited from earlier work
[2] = Cabozantinib plasma PK monitoring; format: in vivo, human; details: whole population; from population PK model

## COc1cc2nccc(Oc3ccc(NC(=O)C4(C(=O)Nc5ccc(F)cc5)CC4)cc3)c2cc1OC [cabozantinib]
[1]; 20 mg starting dose
  Hazard ratio for risk of progression versus 60 mg daily starting dose: 1.39
[1]; 40 mg starting dose
  Hazard ratio for risk of progression versus 60 mg daily starting dose: 1.10
[1]; lower Cl/F (1.3 l/h) versus standard Cl/F (2.3 l/h)
  Hazard ratio for risk of dose modification (DM): 2.07
[2]
  Mean Cl/F (SD): 2.5 (1.2) l/h
  Median Cl/F (IQR): 2.3 (1.7-3.2) l/h
